{
  "source": "PubChem BioAssay AID652126",
  "about": "(The Scripps Research Institute Molecular Screening Center, 2013)",
  "note": "The entries are a selection whose mix differs from that of the whole data set. Some tests of the compounds listed are not included; inactive here does not mean inactive elsewhere. Activity calls are given as the source filed them.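 Rule for the calls: active = activation above the mean over all tested compounds plus 3 SD (cut at about 0.9% in these data); inactive = the rest.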",
  "data": [
    {"system": "Nuclear hormone receptor DAF-12 (Strongyloides stercoralis)", "test": "S. stercoralis DAF-12 nuclear receptor activators, primary screen, cell-based, luminescence, HEK293, GRIP1 co-expression, lit1-tk-luc (AID 652126);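 note: 0% = DMSO-only wells and 100% = 3 µM delta7-dafachronic acid wells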", "conditions": "HEK293 ssDAF-12/GRIP1 lit1-tk-luc reporter, at 6.8 µM, hits give high values, % of 3 µM dafachronic acid response", "values": [
      {"smiles": "C=C(C)C#CC(O)(C(=O)OC1CCN(C)CC1)c1ccccc1", "note": "(stereo unspecified)", "activation": "inactive: -0.63%"},
      {"smiles": "COc1ccc(Br)c(C(=O)NCC2(N3CCCCC3)CCCCC2)c1", "activation": "inactive: -2.11%"},
      {"smiles": "CC(C)Oc1ccc(C(=O)NCC2(N(C)C)CCCCC2)cc1", "activation": "inactive: -1.12%"},
      {"smiles": "O=C(OCCN1CCCC1)C(O)(c1ccccc1)c1ccccc1", "activation": "inactive: -0.9%"},
      {"smiles": "CN(C)c1cccc(C(=O)NCC2(N(C)C)CCCCC2)c1", "activation": "inactive: -1.27%"},
      {"smiles": "O=C(OC1CN2CCC1CC2)C(CO)(c1ccccc1)c1ccccc1", "note": "(stereo unspecified)", "activation": "inactive: -0.85%"},
      {"smiles": "COc1cccc(C(=O)NCC2(N3CCCCC3)CCCCC2)c1", "activation": "inactive: -1.61%"},
      {"smiles": "COc1ccc(Cl)cc1C(=O)NCC1(N(C)C)CCCCC1", "activation": "inactive: -0.81%"},
      {"smiles": "O=C(NCC1(N2CCCCC2)CCCCC1)c1cccc(Cl)c1", "activation": "inactive: -0.77%"},
      {"smiles": "CN(C)C1(CNC(=O)c2ccc(Br)cc2)CCCCC1", "activation": "inactive: -0.59%"},
      {"smiles": "COc1cc(C(=O)NCC2(N(C)C)CCCCC2)c([N+](=O)[O-])cc1OC", "activation": "inactive: -0.49%"},
      {"smiles": "C=CCN1CCN(CCOC(=O)C(O)(c2ccccc2)c2ccccc2)CC1", "activation": "inactive: -0.7%"},
      {"smiles": "O=C(NCC1(N2CCCCC2)CCCCC1)c1cc(F)c(F)cc1Cl", "activation": "inactive: -1.19%"},
      {"smiles": "COc1ccc(C(=O)NCC2(N(C)C)CCCCC2)cc1", "activation": "inactive: -0.59%"},
      {"smiles": "Cc1cc(C(=O)NCC2(N3CCCCC3)CCCCC2)ccc1[N+](=O)[O-]", "activation": "inactive: -0.48%"},
      {"smiles": "CCN1CCCC(OC(=O)C2(O)c3ccccc3C=Cc3ccccc32)C1", "note": "(stereo unspecified)", "activation": "inactive: -1.3%"},
      {"smiles": "O=C(NCC1(N2CCCCC2)CCCCC1)c1cccc(Br)c1", "activation": "inactive: -0.33%"},
      {"smiles": "Cc1ccccc1C(=O)NCC1(N2CCCCC2)CCCCC1", "activation": "inactive: 0.39%"},
      {"smiles": "CN(C)C1CCCC1OC(=O)C(O)(c1ccccc1)c1ccccc1", "note": "(stereo unspecified)", "activation": "inactive: -0.57%"},
      {"smiles": "CN(C)c1ccc(C(=O)NCC2(N(C)C)CCCCC2)cc1", "activation": "inactive: -1.47%"},
      {"smiles": "CCN(CC)CC(C)C(C)OC(=O)C(O)(c1ccccc1)c1ccccc1", "note": "(stereo unspecified)", "activation": "inactive: -1.26%"},
      {"smiles": "COc1cc(SC)ccc1C(=O)NCC1(N(C)C)CCCCC1", "activation": "inactive: -1.02%"},
      {"smiles": "CC(C)N1C(=O)CC2(CCN(CCOC(=O)C(O)(c3ccccc3)c3ccccc3)CC2)C1=O", "activation": "inactive: -1.18%"},
      {"smiles": "Cc1ccc(C(=O)NCC2(N3CCCCC3)CCCCC2)cc1", "activation": "inactive: -1.21%"},
      {"smiles": "O=C(NCC1(N2CCCCC2)CCCCC1)c1cc([N+](=O)[O-])ccc1Cl", "activation": "inactive: -0.6%"},
      {"smiles": "CN1[C@@H]2CC[C@H]1CC(OC(=O)C(O)(c1ccccc1)c1ccccc1)C2", "note": "(stereo partly specified)", "activation": "inactive: -0.83%"}
    ]}
  ]
}
